Protein sequences, listed by entry. Tags and fused reporters are not part of them.
UniProt P05177, whole entry: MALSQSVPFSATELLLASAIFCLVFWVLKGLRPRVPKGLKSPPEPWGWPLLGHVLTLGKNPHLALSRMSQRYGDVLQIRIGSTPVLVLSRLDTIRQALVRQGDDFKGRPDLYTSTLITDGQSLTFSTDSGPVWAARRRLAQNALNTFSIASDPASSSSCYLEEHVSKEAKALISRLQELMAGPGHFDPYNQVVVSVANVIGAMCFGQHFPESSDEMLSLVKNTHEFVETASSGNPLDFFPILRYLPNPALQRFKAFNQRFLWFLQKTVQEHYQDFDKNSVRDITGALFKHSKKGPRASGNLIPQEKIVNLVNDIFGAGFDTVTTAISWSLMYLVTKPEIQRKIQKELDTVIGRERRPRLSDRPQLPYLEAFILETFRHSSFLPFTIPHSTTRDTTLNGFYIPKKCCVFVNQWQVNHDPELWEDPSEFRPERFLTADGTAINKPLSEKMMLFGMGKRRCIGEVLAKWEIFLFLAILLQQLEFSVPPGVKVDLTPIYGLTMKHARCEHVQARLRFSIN

According to PMC4826332 (Journal of medicinal chemistry, 2015):

Assays:
CYP1B1 / CYP1A2 = CYP1B1 / CYP1A2 (Homo sapiens, UniProt P05177); experiment: P450 1A2-dependent methoxyresorufin-O-demethylase; type: biochemical; settings: pH 7.6
CYP1A1 / CYP1A2 = CYP1A1 / CYP1A2 (Homo sapiens, UniProt P05177); experiment: P450 1A2-dependent methoxyresorufin-O-demethylase; type: biochemical; settings: pH 7.6

Structure (SMILES): O=c1cc(-c2ccccc2)c2ccc3c(c2o1)OCO3 [Compound 28, 6-Phenyl-8H-[1,3]dioxolo[4,5-h]chromen-8-one]
- selectivity ratio (CYP1B1 / CYP1A2): 8.5
- selectivity ratio (CYP1A1 / CYP1A2): > 56
